The values that follow are results of earlier work, collected in patent publication US10736889B2, “Method of treating dyskinesia” (Rutgers, The State University of New Jersey, priority 2011, dated 2020).

The chains behind the UniProt entries cited, without tags or fusion partners. Where a name states a change or a piece, a line headed by the entry shows the natural chain unless it says otherwise.
UniProt P41145: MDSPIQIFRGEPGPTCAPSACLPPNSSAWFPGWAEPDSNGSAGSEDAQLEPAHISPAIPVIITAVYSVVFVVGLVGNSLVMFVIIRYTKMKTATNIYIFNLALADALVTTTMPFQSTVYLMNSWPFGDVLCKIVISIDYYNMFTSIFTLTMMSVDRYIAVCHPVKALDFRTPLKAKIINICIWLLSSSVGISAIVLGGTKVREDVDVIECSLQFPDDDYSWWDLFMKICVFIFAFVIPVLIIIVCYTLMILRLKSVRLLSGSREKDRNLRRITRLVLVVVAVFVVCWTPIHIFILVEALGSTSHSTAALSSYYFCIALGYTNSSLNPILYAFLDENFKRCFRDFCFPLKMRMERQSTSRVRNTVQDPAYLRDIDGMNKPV

The data set addresses κ-opioid receptors (Homo sapiens, UniProt P41145).

By Ki is commonly meant a measure of affinity in units of concentration, obtained from inhibition or displacement. `C=C1CC[C@@]2(O)[C@H]3Cc4ccc(O)c5c4[C@@]2(CCN3CC2CC2)[C@H]1O5` [Nalmefene]: the Ki was approximately 0.083 nM.
